Source: patent US6984772

Legend:
[1] = molecular target: Recombinant human fibrinogen from the milk of transgenic mice (UniProt P02671)
[2] = molecular target: Mouse fibrinogen (UniProt E9PV24)
[3] = molecular target: Plasma derived human fibrinogen (reference protein) (UniProt P02671)

In the case of Human thrombin, the % FPA yield, T = 24 hours (transgenic whey pellet-2) [1] is reported as 60%, the % FPA yield, T = 24 hours (mouse plasma) [2] is reported as 5% and the % FPA yield, T = 24 hours (fibrinopeptide A released, EIA) [3] is reported as 100%. For the same substance, the % FPA yield, T = 24 hours (hFIB spiked into non-transgenic whey, pellet-2) [3] was 75%, the Fibrinogen µg/ml (ELISA) left in supernatant at T = 24 hours of thrombin treatment (100 at T = 0) [3] was 0.1 µg/mL and the Fibrinogen µg/ml (ELISA) left in supernatant at T = 24 hours of thrombin treatment (spiked NTG whey pellet-2, 50 at T = 0) [3] was 0.1 µg/mL.
